# Reference: ChEMBL document CHEMBL1914421, “Aminomethyltetrazoles as potential inhibitors of the γ-aminobutyric acid transporters mGAT1-mGAT4: synthesis and biological evaluation” (Bioorg Med Chem, 2011)
# Tested on: betaine/GABA transporter BGT-1 (Slc6a12, Mus musculus)
# Assay: Residual mouse GAT2-mediated [3H]GABA uptake expressed in human HEK cells at 100 uM
# Details: HEK293
row,Structure (SMILES),residual activity [%]
1,c1ccc(C(CCNCc2nnnn2C2CCCCC2)c2ccccc2)cc1,74.8
2,c1ccc(C(NCc2nnnn2C2CCCCC2)c2ccccc2)cc1,76.3
